# Laboratory results from US20260226096A1, “MODIFIED PROTEINS OR PEPTIDES FOR COVALENT TARGETING” (YEDA RESEARCH AND DEVELOPMENT CO. LTD., priority 2023, published 2026).
# Columns and labels:
# [1] = Differential scanning fluorimetry for Im-E9 complexes; assay type: physicochemical; conditions: SYPRO Orange, protein 40 μM
# E9 = target: T1, E9 (Escherichia coli, UniProt P09883); assay: Reaction between Im9 methacrylate and E9, intact protein LCMS; conditions: room temperature
# T1 sequence (P09883 450-582 limits assumed): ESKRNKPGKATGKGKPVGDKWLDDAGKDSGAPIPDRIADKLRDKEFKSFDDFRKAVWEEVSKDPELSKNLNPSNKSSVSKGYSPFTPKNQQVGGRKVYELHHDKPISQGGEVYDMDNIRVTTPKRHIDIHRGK
substance,measurement,setting,value
MELKHSISDYTEAEFLQLVTTIANADTSSEEELVKLVTHF(mC)EMTEHPSGSDLIYYPKEG DDDSPSGIVNTVKQWRAANGKSGFKQGLEHHHHHH [methacrylate-modified Im9 mutant],unfolding (melting) temperature,[1],around 50 °C
same,conversion to the covalent complex within 16 hours,E9,near quantitative conversion
